Source: article PMC12095788, “Structural and mechanistic profiling of Nurr1 modulation by vidofludimus enables structure-guided ligand design” (Communications Chemistry, 2025)

Sequences of proteins named here, by UniProt entry; tags and fusion partners are left off. Residues count along the entry.
UniProt P43354, 364-598 limits assumed: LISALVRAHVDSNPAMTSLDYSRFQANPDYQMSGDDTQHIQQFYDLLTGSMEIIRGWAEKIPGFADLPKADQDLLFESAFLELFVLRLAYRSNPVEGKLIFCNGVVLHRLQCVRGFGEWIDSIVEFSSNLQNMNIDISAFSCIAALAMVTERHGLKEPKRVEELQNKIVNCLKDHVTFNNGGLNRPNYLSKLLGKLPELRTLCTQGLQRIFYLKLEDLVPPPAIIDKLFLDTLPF

Target: T1, Nurr1 LBD homodimer (Homo sapiens, UniProt P43354)
T1 construct: a plasmid construct encoding Nurr1 (aa 364-598) in a pMal vector system; sGFP-Nurr1 LBD protein and sGFP-RXRα LBD[26] were titrated against a fixed concentration of Tb-SA conjugated Nurr1 LBD protein; MBP (cleaved yes); made in house; host or cells: E.coli BL21-R3-pRARE2 (biotinylated Nurr1 LBD)
Assay: HTRF Nurr1 homodimer formation assay
Type: biochemical

COc1cccc(-c2ccc(NC(=O)C3=C(C(=O)O)CCC3)c(F)c2)c1 [vidofludimus]
effect on Nurr1 homodimerization: strongly reduced
